Screening results: PubChem, National Center for Advancing Translational Sciences (NCATS)
Hits are enriched below; roughly 0.62% of the tested compounds scored in any of these assays.
miR-21 reporter – raises the signal of a miR-21 reporter; Potency, µM (doses to about 38.3 µM), inactives show top-dose reporter change, positive = more light; HeLa miR-21 FLuc reporter, luciferase, 48 h; AID 2288; 340,000 tested, under 10 active; active = well fitted rising curve with a large enough effect; inconclusive = small, poorly fitted or top-dose-only effect; inactive = no such curve, though single readings can be large or run the other way;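 further: % of control where 0% means no effect; miR-21 action dims this reporter so a rising signal means less miR-21 action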
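Luminescence from a firefly luciferase reporter carrying a miR-21 binding site downstream, stably expressed under a CMV promoter in HeLa cells that make miR-21 endogenously, reports miRNA modulation after 48 h compound exposure up to approximately 40uM final.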
IL-2 act – IL-2 activation. activation, % (series mostly up to about 46 µM). IL-2 activation reporter assay, cell-based qHTS; stimulated with anti-CD3/CD4/CD28 beads; in transgenic mouse T cells. hit rate 0.065% among 360,000; in the data active = activation above about 50%; inconclusive = mostly about 30% to 49%; note: 0% is about no effect
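Unstimulated transgenic mouse T cells; 60-min compound exposure; bead-based TCR/CD4/CD28 stimulation; 18 h culture, 37 degrees C; dual fluorescence (EGFP, DsRed) plate cytometry.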
p53 reactivator – restores transcriptional activity of mutant p53; H1299 p53-A138V BP100-luciferase reporter, luminescence, 24 h; Potency, µM (top dose mostly 92.2 µM), for inactives: at the top dose activity change, positive = activation, most hits filed as activators; hit rate 0.063% among 320,000; AID 504706; note: potency is the fitted concentration of half-maximal effect; % of control where 0% means no effect; nearly all actives have a fitted effect of over 45% in size
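p53-null H1299 cells stably carrying temperature-sensitive p53-A138V and a BP100-luciferase reporter were pinned with compounds (4-point, 1:5 series) and held 24 hrs at 37 deg C. Luminescence was read 10 min after detection reagent.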
uPA surface inh – inhibitors of cell surface uPA generation. Potency, µM (titrated, usually from 38.3 µM), inactives show at the top dose activity change, negative = inhibition, most hits filed as inhibitors. hit rate 0.31% among 330,000. AID 540303. cell surface uPA generation assay, qHTS; active = well fitted inhibition curve with a large enough effect; inconclusive = small, poorly fitted or top-dose-only effect; inactive = no such curve, though single readings can be large or run the other way; tested in mouse RAW 264.7 cells; note: potency is the fitted concentration of half-maximal effect; % is set by controls: 0 for no effect and ±100 for the full control effect; nearly all actives have a fitted effect of over 55% in size
Epigenetic reg – regulators of epigenetic silencing causing reporter derepression in mouse cells. murine LDR cells, GFP reporter derepression, 30 h. Potency, µM (doses to about 53.9 µM), for the others: at the highest dose GFP activation, hits mostly activators. hit rate 0.2% among 280,000. AID 1865; note: potency is the fitted concentration of half-maximal effect; % of control where 0% means no effect; nearly all actives have a fitted effect of over 60% in size
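Derepression of a silenced CMV-GFP reporter in murine LDR cells is scored by enumerating GFP-positive cells with a laser-scanning microplate cytometer after 30 hours of treatment at 37 C.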
PINK1 modulator – modulators of PINK1 expression; Potency, µM (titrated, usually from 76.6 µM), without a hit: at the highest dose activation (PINK1 increase), hits mostly activators; PINK1 immunofluorescence, high-content cytometry, 24 h; AID 624263; hit rate 0.2% among 410,000; active = well fitted activation curve with a large enough effect; inconclusive = small, poorly fitted or top-dose-only effect; cell line not stated here; note: potency is the fitted concentration of half-maximal effect; % of control where 0% means no effect; nearly all actives have a fitted effect of over 65% in size
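Fluorescence from anti-PINK1 antibody, together with nuclear and cell stains, was scanned on a laser-scanning cytometer. Before staining, stable-line cells were incubated 24 hours with compounds at 5 concentrations; primary antibody 12 h at 10 degrees C.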
Numbers without * were called inactive; ? = inconclusive; / = no result given; [ ] = dose if it differs, or a comment. Unless noted, calls come from the whole dose curve; as a rule, active = well fitted curve in the direction sought with a large enough effect; inconclusive = small, poorly fitted or top-dose-only effect, or another doubt; inactive = no such curve, though single readings can be large; an effect the other way counts as inactive or inconclusive.

Each structure is followed by: miR-21 reporter, IL-2 act, p53 reactivator, uPA surface inh, Epigenetic reg, PINK1 modulator
#1 COc1ccccc1NS(=O)(=O)c1cc([N+](=O)[O-])ccc1N/N=C/c1sc(N2CCOCC2)nc1-c1ccccc1
  -15%, 4, 4%, 2%, 2.8µM*, -1%
#2 COc1cccc(CNC(=O)c2c(OC)cc(=O)n3c2CCN(C(=O)c2ccoc2C)CC3)c1
  /, /, /, /, /, 0%
#3 CSc1nsc(/C=C/Nc2ccc(C(=O)O)cc2)c1C#N
  0%, -5, -2%, -13%, 2%, 2%
#4 CSc1nsc(/C=C/Nc2ccc(F)cc2F)c1C#N
  -10%, 1, -3%, 7%, 4µM*, 6%
#5 c1ccc(-c2cc3cc4c(cc3cn2)OCO4)cc1
  /, -1, 8.9µM*, ?, /, 1%
#6 COc1ccc(C(C(=O)NC2CCCC2)N(C(=O)c2snc(-c3ccc(F)cc3)c2N)c2ccc(OC)cc2)cc1 (stereo not drawn)
  -3%, -3, 7%, 1%, -1%, -4%
#7 COc1ccc(C(C(=O)NC2CCCC2)N(C(=O)c2snc(-c3ccc(F)cc3)c2N)c2ccccc2)cc1 (stereo not drawn)
  0%, 1, -2%, /, 0%, 13µM*
#8 COc1ccc(C(C(=O)NC2CCCC2)N(C(=O)c2snc(-c3ccc(F)cc3)c2N)c2ccc(F)cc2)cc1 (stereo not drawn)
  -9%, -4, 9%, /, 0%, 16µM*
#9 CCC1CN(CCNC(=O)C2CCCCN2C)Cc2cc(OC)ccc2O1 (stereo not drawn)
  /, /, /, /, /, 0%
#10 CC(=O)Nc1sc(N/N=C\c2ccc(O)cc2)nc1-c1cccs1
  -26%, 0, 16%, 19%, 3%, 1%
#11 CCN(CC)c1ccc(/C=C(\C#N)c2nc(-c3cccs3)c(NC(C)=O)s2)cc1
  -3%, /, -21%, /, 1.6µM*, /
#12 CC(NC(=O)c1cc(F)ccc1F)c1nnc2n1CCN(Cc1ccccc1O)CC2 (stereo not drawn)
  /, /, /, /, /, 0%
#13 Cc1nn(-c2nc3ccccc3s2)c(C)c1Oc1ccccc1O
  -9%, -2, 13µM*, -7%, 0%, 23%[38.3 µM]
#14 COc1ccc(OC)c(CN2CCOc3ccc(CN4CCC(O)(c5cccnc5)CC4)cc3C2)c1
  /, /, /, /, /, -1%
#15 Cn1ccc(C(=O)NCC2CCC3(CCN(Cc4ccc(F)cc4F)CC3)O2)n1 (stereo not drawn)
  /, /, /, /, /, 0%
#16 Cc1ccc(C(=O)NNc2ncnc3c2cnn3C)cc1
  -1%, 0, 0%, -1%, 0%, 1%
#17 Cn1ncc2c(O/N=C(\N)c3ccc(C(F)(F)F)cc3)ncnc21
  ?, -1, -14%, 2.8µM*, -4%, -1%
#18 O=C1N=C(N2CCOCC2)S/C1=C/c1ccc(-c2ccccc2Cl)o1
  -8%, ?, -3%, 8%, -1%, 2%
#19 O=C1S/C(=C\c2ccc(N3CCOCC3)o2)C(=O)N1Cc1c(F)cccc1Cl
  -9%, -4, -5%, -17%, 8.9µM*, ?
#20 O=C1S/C(=C\c2ccc(N3CCOCC3)o2)C(=O)N1c1ccccc1
  -5%, 0, 2%, -3%, 14µM*, ?
#21 O=C1S/C(=C/c2ccc(N3CCOCC3)o2)C(=O)N1Cc1c(F)cccc1Cl
  -3%, 13, 12%, -2%, 2.5µM*, ?
#22 O=C(O)c1ccccc1-c1ccc(/C=C2\SC(=O)N(c3ccccc3)C2=O)o1
  -30%, 0, 29%, -11%, /, -1%
#23 COc1cc(OC)c(OC)cc1CN1CCCC(n2cc(C(=O)N3CCCCC3)nn2)C1 (stereo not drawn)
  /, /, /, /, /, 1%
#24 COC(=O)[C@@H]1CCCN1Cc1ccc2c(c1)CN(Cc1cccn1-c1ccccn1)CCO2
  /, /, /, /, /, 1%
#25 CC(=O)NC(c1cc(Cl)c2cccnc2c1O)C(C)C (stereo not drawn)
  /, -1, 27%, 3.2µM*, /, 5%
#26 CC(=O)NC(c1cc(Cl)c2cccnc2c1O)C1CC1 (stereo not drawn)
  /, -1, 17%, 4µM*, /, 6%
#27 CC(=O)NC(c1cc(Cl)c2ccccc2c1O)C(C)C (stereo not drawn)
  /, 0, -10%, -24%, /, 12%

Part of the list above, in transposed form:
#22 O=C(O)c1ccccc1-c1ccc(/C=C2\SC(=O)N(c3ccccc3)C2=O)o1
#23 COc1cc(OC)c(OC)cc1CN1CCCC(n2cc(C(=O)N3CCCCC3)nn2)C1 (stereo not drawn)
#24 COC(=O)[C@@H]1CCCN1Cc1ccc2c(c1)CN(Cc1cccn1-c1ccccn1)CCO2
#25 CC(=O)NC(c1cc(Cl)c2cccnc2c1O)C(C)C (stereo not drawn)
assay / entry	22	23	24	25
miR-21 reporter	-30%	/	/	/
IL-2 act	0	/	/	-1
p53 reactivator	29%	/	/	27%
uPA surface inh	-11%	/	/	3.2µM*
Epigenetic reg	/	/	/	/
PINK1 modulator	-1%	1%	1%	5%
